The values that follow come from patent publication US11478477B2, “Method for treating cancer by combination of FAK/ALK/ROS1 inhibitor and EGFR inhibitor” (ASCENTAGE PHARMA (SUZHOU) CO., LTD., priority 2018, dated 2022).

Structures are written as SMILES.

The test system of the experiment is human EGFR^T790M-mutant NCI-H1975 lung cancer xenograft tumor model. The experiment is described as follows: Example 5: Compound 5 with AZD9291 in xenograft tumor model.

`C=CC(=O)Nc1cc(Nc2nccc(-c3cn(C)c4ccccc34)n2)c(OC)cc1N(C)CCN(C)C` [AZD9291, osimertinib]: the “Tumor status on Day 15 after administration: CR, mice/group” value is 0/6 and the “Tumor status on Day 15 after administration: PR, mice/group” value is on record as 1/6.
